# Screens deposited in PubChem by National Center for Advancing Translational Sciences (NCATS).
# The list is not random: actives were taken first. Their share in the collection is about 16%.
# miR-21 reporter: raises the signal of a miR-21 reporter; HeLa miR-21 FLuc reporter, luciferase, 48 h; Potency, µM (series often up to 38.3 µM), inactives show top-dose reporter change, positive = more light; 340,000 tested, under 10 active; active = well fitted rising curve with a large enough effect; inconclusive = small, poorly fitted or top-dose-only effect; inactive = no such curve, though single readings can be large or run the other way;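 also: % of control where 0% means no effect; miR-21 action dims this reporter so a rising signal means less miR-21 action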
#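 Using DMEM plus 10% FBS, HeLa miR-21-FLuc cells are incubated with test compounds (final up to about 40uM) for 48 hours; firefly luciferase signal is then imaged following reagent-mediated lysis.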
# DT40 TDP1 no CPT: qHTS for Inhibitors of human tyrosyl-DNA phosphodiesterase 1 (TDP1): qHTS in cells in absence of CPT; DT40 Tdp1-/- hTDP1 cells, no CPT, ATP luminescence, 48 h; Potency, µM (doses to about 46.2 µM), for the others: at the highest dose activity change, negative = growth inhibition, usual class: inhibitors; 420,000 compounds, 15% hits; AID 686978, 2013; note: potency is the fitted concentration of half-maximal effect; % is set by controls: 0 for no effect and ±100 for the full control effect; nearly all actives have a fitted effect of over 55% in size
#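 Growth of hTDP1-complemented DT40 Tdp1-knockout cells is measured by ATP luminescence after at least 48 hr compound exposure at 37 °C, with DMSO substituting for the 20 nM CPT used in the parallel screen.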
# uPA generation: blocks generation of uPA at the cell surface; 330,000 compounds, 0.31% hits; Potency, µM (doses to about 38.3 µM), without a hit: at the highest dose activity change, negative = inhibition, actives largely listed as inhibitors; AID 540303; cell surface uPA generation assay, qHTS; active = well fitted inhibition curve with a large enough effect; inconclusive = small, poorly fitted or top-dose-only effect; inactive = no such curve, though single readings can be large or run the other way; tested in mouse RAW 264.7 cells; note: potency is the fitted concentration of half-maximal effect; % is set by controls: 0 for no effect and ±100 for the full control effect; nearly all actives have a fitted effect of over 55% in size
# DT40 TDP1 CPT: DT40-hTDP1 cell growth loss with CPT. chicken DT40 Tdp1-/-;hTDP1 cells + 20 nM CPT, ATP luminescence, 48 h. Potency, µM (doses to about 46.2 µM), inactives show top-dose activity change, negative = growth inhibition, usual class: inhibitors. 420,000 compounds, 12% hits; note: potency is the fitted concentration of half-maximal effect; % is set by controls: 0 for no effect and ±100 for the full control effect; nearly all actives have a fitted effect of over 55% in size
#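 Chicken DT40 Tdp1-/- cells stably complemented with human TDP1 were seeded at 400 cells/well in medium containing 20 nM camptothecin, exposed to pin-transferred compounds, and grown at 37 °C for at least 48 hr. Viability was read as ATP luminescence.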
# TDP1 block: blocks human tyrosyl-DNA phosphodiesterase 1; recombinant TDP1, AlphaScreen DNA substrate cleavage; Potency, µM (series often up to 130 µM), without a hit: top-dose activity change, negative = inhibition, most hits filed as inhibitors; Q9NUW8; 350,000 compounds, 0.28% hits; note: potency is the fitted concentration of half-maximal effect; % is set by controls: 0 for no effect and ±100 for the full control effect; nearly all actives have a fitted effect of over 40% in size
#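 Recombinant E. coli-expressed Tdp1 (1 nM) preincubated with compound 15 min at RT, then 5'-biotin/3'-phosphotyrosine-FITC DNA substrate (15 nM) added for 5 min. AlphaScreen beads (10 ug/ml) added, 10 min RT; tyrosine-FITC cleavage read as signal loss.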
# Active calls of the source: *; ? = inconclusive; nt = no result. Unless noted, calls come from the whole dose curve; as a rule, active = well fitted curve in the direction sought with a large enough effect; inconclusive = small, poorly fitted or top-dose-only effect, or another doubt; inactive = no such curve, though single readings can be large; an effect the other way counts as inactive or inconclusive.
[1] COc1cccc(-c2nnc(-c3ccccc3NC(=O)c3cccc(C(F)(F)F)c3)o2)c1
[2] CC(=O)OC(/C(O)=C(\C#N)c1nc2ccccc2[nH]1)c1ccccc1 (stereo not drawn)
[3] C/C(O)=C(/C#N)c1nc2ccccc2[nH]1
[4] N#C/C(=C(/O)c1ccc(Cl)c([N+](=O)[O-])c1)c1nc2ccccc2[nH]1
[5] COc1cc(/C(O)=C(\C#N)c2nc3ccccc3[nH]2)cc(OC)c1OC
[6] N#C/C(=C(/O)C(Cl)(Cl)Cl)c1nc2ccccc2[nH]1
[7] N#C/C(=C(/O)c1ccc([N+](=O)[O-])cc1)c1nc2ccccc2[nH]1
[8] COc1ccc(Nc2nc3ccc(C)cc3n3cnnc23)cc1Cl
Screen / compound no.	1	2	3	4	5	6	7	8
miR-21 reporter	-12.5%	-0.3%	6.2%	12.2%	-2.2%	7.1%	0.0%	-9.3%
DT40 TDP1 no CPT	-12.0%	18.4µM*	?	?	13µM*	9.2µM*	?	nt
uPA generation	nt	-1.2%	-2.0%	-12.0%	0.5%	-28.0%	-2.0%	nt
DT40 TDP1 CPT	-8.4%	?	?	14.6µM*	?	8.2µM*	-8.8%	nt
TDP1 block	3.2%	4.2%	0.0%	-1.2%	nt	nt	2.6%	nt

[9] COc1nc2c(c(-c3cc(Br)cs3)c1C#N)Cc1ccccc1-2
[10] CCOc1nc2c(c(-c3cccs3)c1C#N)Cc1ccccc1-2
[11] CC(C)(C)c1ccc(N2C(=O)CC(C/C=C/c3ccccc3)C2=O)cc1 (stereo not drawn)
[12] COc1ccc(C)cc1NC(=O)CN(C)S(=O)(=O)c1ccc2c(c1)CC(C)N2C(C)=O (stereo not drawn)
[13] CC(=O)N1c2ccc(S(=O)(=O)N(C)CC(=O)NCc3ccc(C)cc3)cc2CC1C (stereo not drawn)
[14] CC(=O)N1c2ccc(S(=O)(=O)N(C)c3cc(C)ccc3C)cc2CC1C (stereo not drawn)
[15] Cc1ccn2c(NC(=O)c3ccccc3)c(-c3ccccc3)nc2c1
[16] Cc1ccn2c(NC(=O)c3cccc(Cl)c3)c(-c3ccccc3)nc2c1
Screen / compound no.	9	10	11	12	13	14	15	16
miR-21 reporter	0.7%	-3.9%	1.5%	-3.0%	2.4%	-2.5%	-25.4%	-5.3%
DT40 TDP1 no CPT	25.9µM*	-9.0%	?	?	-7.1%	23.1µM*	3.7%	23.1µM*
uPA generation	-12.1%	-0.3%	6.0%	?	3.7%	4.0%	2.6%	nt
DT40 TDP1 CPT	?	-13.4%	-22.8%	23.1µM*	-20.0%	?	20.0%	?
TDP1 block	-3.8%	-1.4%	6.5%	4.8%	0.4%	nt	nt	2.9%

[17] COc1ccc(-c2nc3cc(C)ccn3c2NC(=O)c2cccc(F)c2)cc1
[18] Cc1cccc(C(=O)Nc2c(-c3ccccc3)nc3cc(C)ccn23)c1
[19] CC(C(=O)c1ccc(-c2ccccc2)cc1)[n+]1cccc(C(N)=O)c1 (stereo not drawn)
[20] CC(C(=O)c1ccc(-c2ccccc2)cc1)[n+]1ccccc1 (stereo not drawn)
[21] Cc1ccc[n+](C(C)C(=O)c2ccc(-c3ccccc3)cc2)c1 (stereo not drawn)
[22] CC(=O)Nc1cc[n+](CC(=O)c2ccc(Cl)cc2)cc1
[23] CC(=O)Nc1cc[n+](C(C)C(=O)c2ccc(Cl)cc2)cc1 (stereo not drawn)
[24] Cc1cc(OC(C)C(=O)N2C[C@H]3C[C@@H](C2)c2cccc(=O)n2C3)c2c(C)c(C)c(=O)oc2c1 (stereo partly drawn)
Screen / compound no.	17	18	19	20	21	22	23	24
miR-21 reporter	-0.4%	-3.9%	-1.0%	20.7%	28.3%	1.1%	1.4%	6.2%
DT40 TDP1 no CPT	?	20.6µM*	-10.0%	2.06µM*	5.17µM*	-10.7%	16.4µM*	11.5%
uPA generation	nt	nt	-4.9%	-16.8%	-11.4%	3.2%	1.8%	-4.4%
DT40 TDP1 CPT	?	?	11.1%	2.59µM*	4.11µM*	7.9%	16.4µM*	18.2%
TDP1 block	2.9%	5.9%	3.8%	-3.1%	0.0%	2.4%	-1.2%	nt

[25] S=c1nc(-c2ccc(Br)cc2)oc2c1CCCC2
[26] COCC(C)n1c(SCc2cc(=O)n3cc(C)ccc3n2)nc2ccccc2c1=O (stereo not drawn)
[27] C=CCn1c(SCC(=O)N2CCc3ccccc3C2)nc2sc(CC)cc2c1=O
[28] C=CCn1c(SCC(=O)N2CCc3ccccc3C2)nc2sc(C)c(C)c2c1=O
[29] COCC(C)n1c(SCC(=O)N2CCCCC2)nc2ccccc2c1=O (stereo not drawn)
[30] COCC(C)n1c(SCC(=O)N2CCc3ccccc3C2)nc2ccccc2c1=O (stereo not drawn)
[31] Cc1ccc2nc(CSc3nnc4ccccn34)cc(=O)n2c1
[32] CCn1c(SCC(=O)N2CCCC2)nc2ccccc2c1=O
Screen / compound no.	25	26	27	28	29	30	31	32
miR-21 reporter	-9.9%	27.2%	21.4%	-1.8%	-10.0%	10.4%	-13.3%	1.0%
DT40 TDP1 no CPT	-98.3%	10.3µM*	?	?	?	1.84µM*	6.5%	-16.0%
uPA generation	3.5%	-3.7%	4.6%	?	4.7%	-22.2%	3.4%	nt
DT40 TDP1 CPT	20.6µM*	?	?	18.4µM*	?	2.31µM*	1.8%	-4.7%
TDP1 block	5.1%	4.7%	5.3%	0.0%	3.1%	8.5%	4.6%	4.2%

# Single records, as listed above. Values in the order: miR-21 reporter | DT40 TDP1 no CPT | uPA generation | DT40 TDP1 CPT | TDP1 block
# Entry for Cc1ccn2c(NC(=O)c3cccc(Cl)c3)c(-c3ccccc3)nc2c1 : -5.3% | 23.1µM* | nt | ? | 2.9%
# Entry for C=CCn1c(SCC(=O)N2CCc3ccccc3C2)nc2sc(CC)cc2c1=O : 21.4% | ? | 4.6% | ? | 5.3%

# (continued)
[33] C=CCn1c(SCC(=O)N2CCc3ccccc3C2)nc2ccccc2c1=O
[34] COc1ccccc1Oc1nc2c(C)cccn2c(=O)c1/C=C(\C#N)c1nc2ccccc2[nH]1
[35] CCn1c(SCC(=O)Nc2cc(C(C)(C)C)nn2-c2ccccc2)nnc1-c1cccs1
[36] COCC(C)n1c(SCC(=O)Nc2sccc2C(N)=O)nc2ccccc2c1=O (stereo not drawn)
[37] CCC(C)n1c(SCC(=O)Nc2cc(C(C)(C)C)nn2-c2ccccc2)nc2ccccc2c1=O (stereo not drawn)
[38] COc1ccc(C(=O)N(C)CC2CCN(CCc3cccc(C(F)(F)F)c3)CC2)cc1C
[39] Cc1cc(NC(=O)COn2nnc3ccc(S(C)(=O)=O)cc32)ccc1Br
[40] Cc1cc(C(=O)Nc2sccc2C#N)c2ccccc2n1
Screen / compound no.	33	34	35	36	37	38	39	40
miR-21 reporter	15.6%	0.2%	1.8%	nt	15.9%	20.5%	12.7%	1.8%
DT40 TDP1 no CPT	18.4µM*	-10.1%	?	7.31µM*	25.9µM*	?	16.4µM*	5.2%
uPA generation	1.6%	nt	-3.9%	5.7%	-18.1%	-28.2%	-54.3%	0.9%
DT40 TDP1 CPT	?	-1.4%	-29.1%	20.6µM*	?	?	?	2.6%
TDP1 block	4.3%	0.0%	5.4%	1.0%	4.3%	nt	0.6%	4.4%

# Only miR-21 reporter, DT40 TDP1 CPT and uPA generation, for some of the entries so far:
no. | structure | miR-21 reporter | DT40 TDP1 CPT | uPA generation
34 | COc1ccccc1Oc1nc2c(C)cccn2c(=O)c1/C=C(\C#N)c1nc2ccccc2[nH]1 | 0.2% | -1.4% | nt
39 | Cc1cc(NC(=O)COn2nnc3ccc(S(C)(=O)=O)cc32)ccc1Br | 12.7% | ? | -54.3%
33 | C=CCn1c(SCC(=O)N2CCc3ccccc3C2)nc2ccccc2c1=O | 15.6% | ? | 1.6%
38 | COc1ccc(C(=O)N(C)CC2CCN(CCc3cccc(C(F)(F)F)c3)CC2)cc1C | 20.5% | ? | -28.2%

# (continued)
[41] O=C(CSc1nnc(NCc2ccccc2)s1)NC1CCS(=O)(=O)C1 (stereo not drawn)
[42] CN1/C(=C\C(=O)CSc2nnc(NCc3ccccc3)s2)C(C)(C)c2ccccc21
[43] Cc1cc(C(=O)CSc2nnc(NCc3ccccc3)s2)c(C)n1C
[44] CCOc1ccccc1NC(=O)Cn1c(=O)n(-c2ccccc2)c(=O)c2oc3ccccc3c21
[45] Cn1c(SCC(=O)Nc2nccs2)nnc1-c1ccc(S(=O)(=O)N2CCCC2)cc1
Screen / compound no.	41	42	43	44	45
miR-21 reporter	0.4%	4.0%	10.1%	0.4%	2.5%
DT40 TDP1 no CPT	13.7%	?	13µM*	?	-18.6%
uPA generation	-10.9%	-2.2%	-13.5%	4.2%	nt
DT40 TDP1 CPT	9.0%	14.6µM*	10.3µM*	?	-10.2%
TDP1 block	nt	9.6%	5.9%	0.0%	7.0%
